Measurements: patent US12410148B2, “Antibody drug conjugates” (Pharma Mar, S.A., priority 2013, dated 2025)

Assays:
[1] = test system: BT-474, HCC-1954, SK-BR-3, MDA-MB-231, MCF-7 and SK-OV-3 cells; assay: In vitro cytotoxicity, whole cell panel of Bioactivity Example 1; details: 5.0E01 to 2.6E-03 μg/mL
Excerpt: All tumor cell lines used in this study were obtained from the American Type Culture Collection (ATCC), unless otherwise indicated; BT-474 (ATCC HTB-20, Breast Ductal Carcinoma), SK-BR-3 (ATCC HTB-30, Breast Adenocarcinoma) and HCC-1954 (ATCC CRL-2338, Breast Ductal Carcinoma), all HER2+; MDA-MB-231 (ATCC HTB-26, Breast Adenocarcinoma) and MCF-7 (ATCC HTB-22 Breast Adenocarcinoma, pleural effusion), all HER2-; SK-OV-3 (ATCC HTB-77, Ovary Adenocarcinoma), HER2+; NB-4 (Acute Promyelocytic Leukemia, APL, CD13+, M. Lanotte et al. (1991) NB4, a maturation inducible cell line with t(15;17) marker isolated from a human acute promyelocytic leukemia (M3). […]
(§1) For adherent cells: A colorimetric assay using sulforhodamine B (SRB) was adapted for quantitative measurement of cell growth and cytotoxicity, as described in V. Vichai and K. Kirtikara (2006) Sulforhodamine B colorimetric assay for cytotoxicity screening. […] For quantification, cells were washed twice with phosphate buffered saline (PBS), fixed for 15 min in 1% glutaraldehyde solution, rinsed twice with PBS, stained in 0.4% SRB-1% acetic acid solution for 30 min, rinsed several times with 1% acetic acid solution and air-dried. SRB was then extracted in 10 mM trizma base solution and the optical density measured at 490 nm in a microplate spectrophotometer. Cell survival was expressed as percentage of control, untreated cell survival. […]

[2] = test system: HCC-1954, SK-BR-3, MDA-MB-231 and MCF-7 cells; assay: In vitro cytotoxicity, whole breast cancer cell panel; details: for cytotoxicity (words): 10 μg/mL
Excerpt: All tumor cell lines used in this study were obtained from the American Type Culture Collection (ATCC), unless otherwise indicated; BT-474 (ATCC HTB-20, Breast Ductal Carcinoma), SK-BR-3 (ATCC HTB-30, Breast Adenocarcinoma) and HCC-1954 (ATCC CRL-2338, Breast Ductal Carcinoma), all HER2+; MDA-MB-231 (ATCC HTB-26, Breast Adenocarcinoma) and MCF-7 (ATCC HTB-22 Breast Adenocarcinoma, pleural effusion), all HER2-; SK-OV-3 (ATCC HTB-77, Ovary Adenocarcinoma), HER2+; NB-4 (Acute Promyelocytic Leukemia, APL, CD13+, M. Lanotte et al. (1991) NB4, a maturation inducible cell line with t(15;17) marker isolated from a human acute promyelocytic leukemia (M3). Blood 77, 1080-1086), (CD13+) and U937 (ATCC CRL-1 593.2, Histiocytic Lymphoma, CD13+ and CD4+); Raji (ATCC CCL-86, Burkitt's Lymphoma) (CD13−, CD20+, CD5−, and CD4−); RPMI-8226 (ATCC CRM-CCL-155, Multiple Myeloma) (CD13−, CD20−, CD5− and CD4−); Karpas-299 (DSMZ ACC-31, Non-Hodgkin's Lymphoma) (CD20−, CD5+, and CD4+); MOLT-4 (ATCC CRL-1 582, Acute Lymphoblastic Leukemia, CD5+). In addition, the two Raji cell (ATCC CCL-86, Burkitt's Lymphoma) clones used in this study Raji-clone #10 (high CD5 expression) and Raji-clone18 (null CD5 expression), were provided by Dr. Juan M. Zapata (Instituto de Investigaciones Biomedicas “Alberto Sols”, CSIC-UAM, Madrid, Spain). […]
as §1

With “Trastuzumab: monoclonal antibody that interferes with the HER2/neu receptor; purchased from Roche [reference compound]” the “cytotoxicity in DR curves” value [1] was “completely inactive”, the “cytotoxicity (words)” value [2] was “no cytotoxicity” and the “cytotoxicity (words)” value ([2]; listed as trastuzumab) was “no cytotoxicity activity; also recorded: no cytotoxic activity”. The “cytotoxic activity” value ([2]; 50 μg/mL) was “no significant cytotoxic activity”.

“Also recorded” adds a separate entry of the source.
